Laboratory results: patent publication US6403626B1, “Benzimidazole derivatives” (Synaptic Pharmaceutical Corporation, priority 1994, dated 2002)

Chains of the proteins cited; added tags and fusions are not shown.
UniProt P18825, whole entry, looked up: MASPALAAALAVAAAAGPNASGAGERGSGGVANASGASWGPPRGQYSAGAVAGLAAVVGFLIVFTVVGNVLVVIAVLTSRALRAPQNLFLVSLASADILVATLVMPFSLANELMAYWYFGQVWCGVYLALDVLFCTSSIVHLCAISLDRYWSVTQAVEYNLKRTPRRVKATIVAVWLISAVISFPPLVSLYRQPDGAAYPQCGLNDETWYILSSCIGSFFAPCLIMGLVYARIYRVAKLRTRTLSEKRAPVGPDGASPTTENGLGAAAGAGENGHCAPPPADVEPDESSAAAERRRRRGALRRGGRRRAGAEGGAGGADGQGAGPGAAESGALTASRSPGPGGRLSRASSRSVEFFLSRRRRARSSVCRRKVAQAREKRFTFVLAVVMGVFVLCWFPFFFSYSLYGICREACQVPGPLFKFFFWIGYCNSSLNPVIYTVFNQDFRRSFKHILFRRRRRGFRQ

Target: α2C Human Adrenergic Receptor (Homo sapiens, UniProt P18825)
Format: cell-based
Conditions: inhibition of forskolin-stimulated cAMP; NA: Not Active

Compound | pEC50 Alpha-2 C
Cc1cc(NC2=NCCN2)cc2[nH]cnc12 | 8.26
Ic1cc(NC2=NCCN2)cc2[nH]cnc12 | 7.69
FC(F)(F)c1nc2ccc(NC3=NCCN3)c(Br)c2[nH]1 | 7.19
Cc1cc2nc[nH]c2cc1NC1=NCCN1 | 7.65
CC(C)(C)c1nc2ccc(NC3=NCCN3)c(Br)c2[nH]1 | 7.92
CCc1nc2ccc(NC3=NCCN3)c(Br)c2[nH]1 | 7.09

System: patient undergoing aortocoronary bypass surgery
Conditions: premedication with 5 μg k−1 oral, patients; cited from earlier work

Compound | reduction of fentanyl requirements for induction and intubation
Clc1cccc(Cl)c1N=C1NCCN1 [Clonidine, reference compound] | 45%
